Ab-14 light chain CDR variants: yeast mating affinities

Values reported by Engelhart et al. 2022, doi:10.1038/s41597-022-01779-4 (FLAb copy).

All variants were tested on one target, the spike HR2 peptide PDVDLGDISGINAS (SARS-CoV-2).

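Phage display of a naive human antibody library on the peptide gave the parent. The library (AAYL50) carries one to three amino acid substitutions per variant, with no insertions or deletions. The scFvs were displayed on barcoded MATa yeast, the peptide on MATalpha yeast. Mating (16 h, 30 °C) was followed by selection of diploids and sequencing of their barcodes. Each replicate has its own calibration line, from reference interactions of the BCL2 family. There are three technical replicates.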

Parent: Ab-14, a human scFv built as VH, a 15-residue (Gly4Ser)3 linker, VL. Only the CDRs of the light chain vary.
VH: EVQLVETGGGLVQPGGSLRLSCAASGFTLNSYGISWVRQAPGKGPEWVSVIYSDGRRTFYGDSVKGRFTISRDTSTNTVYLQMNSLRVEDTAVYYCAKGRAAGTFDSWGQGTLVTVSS
VL: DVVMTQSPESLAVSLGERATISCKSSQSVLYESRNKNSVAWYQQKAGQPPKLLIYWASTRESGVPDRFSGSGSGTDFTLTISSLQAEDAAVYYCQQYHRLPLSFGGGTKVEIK

Substitutions are numbered in sequence along the VL above, starting at 1 (not Kabat).
Numbers give log10(Kd / nM), so 0 is 1 nM and 3 is 1 µM. Smaller is tighter.
A mean of the replicates is given; it leaves out those without a signal.
An entry "no signal" has no value in the source: the pair was not observed among the diploids in any replicate. This suggests poor binding but is not conclusive.

| # | mean log10 Kd (nM) | detected | changes |
|---|---|---|---|
| 1 | 3.71 | 2/3 | Y31K N37A Y97N |
| 2 | 3.17 | 3/3 | V29N E61K R99D |
| 3 | 3.15 | 1/3 | K24W S25M W56T |
| 4 | 1.27 | 3/3 | N35Y E61A L102I |
| 5 | 3.44 | 3/3 | Q96G Y97E |
| 6 | 1.96 | 3/3 | W56R R60K P101R |
| 7 | 3.29 | 1/3 | Y31M S33G Y97W |
| 8 | 1.65 | 3/3 | L30C E61W Q96G |
| 9 | 4.24 | 2/3 | K24G T59W H98K |
| 10 | 2.21 | 3/3 | S28R S33P V39L |
| 11 | no signal | 0/3 | Y31C Q95C |
| 12 | 4.43 | 2/3 | L30A S38I L102F |
| 13 | 4.74 | 2/3 | L30W K36S S58M |
| 14 | 0.90 | 3/3 | S25V S26F S62V |
| 15 | 1.90 | 3/3 | L30N S33L L100C |
| 16 | 4.64 | 2/3 | S25M S38K A40K |
| 17 | 1.64 | 3/3 | S25Y W56M A57I |
| 18 | no signal | 0/3 | A40R R60H S103R |
| 19 | 1.13 | 3/3 | Q27G Q96D |
| 20 | no signal | 0/3 | K36D Q95K P101C |
| 21 | 2.11 | 3/3 | K24Y L100G S103M |
| 22 | no signal | 0/3 | R60N H98E |
| 23 | no signal | 0/3 | V39D A57K S62E |
| 24 | 4.07 | 1/3 | K24P N37I R99I |
| 25 | 1.61 | 3/3 | V29M T59L R99N |
| 26 | 1.49 | 3/3 | K24I S26E L102Y |
| 27 | 1.30 | 3/3 | R34H N37K H98W |
| 28 | 2.25 | 3/3 | S25Q V29N L100M |
| 29 | 4.25 | 2/3 | N35V A57E |
| 30 | 2.78 | 3/3 | Q27L E32H N37C |
| 31 | no signal | 0/3 | S33H N35L H98L |
| 32 | no signal | 0/3 | V39W Q96G L100Y |
| 33 | 4.15 | 2/3 | S33W Q95H L102P |
| 34 | no signal | 0/3 | S33H E61H Y97I |
| 35 | 2.66 | 1/3 | V39D W56E |
| 36 | 5.17 | 1/3 | V39T H98I L102P |
| 37 | no signal | 0/3 | V29R R60Q S62A |
| 38 | 0.75 | 3/3 | V29L N35W L102F |
| 39 | 1.90 | 3/3 | S28L V39G A40W |
| 40 | no signal | 0/3 | Q27M A40I S58E |
| 41 | no signal | 0/3 | S38V Q96R L100A |
| 42 | 1.52 | 3/3 | S26N E32H Q96M |
| 43 | 1.64 | 3/3 | S25D N37H Q95E |
| 44 | no signal | 0/3 | T59G Q96H |
| 45 | 4.07 | 1/3 | E61N Q96E L100S |
| 46 | no signal | 0/3 | A40Y E61G Q96E |
| 47 | 4.61 | 2/3 | S33I A40P S58K |
| 48 | 3.21 | 1/3 | S38D Y97M R99I |
| 49 | 3.31 | 3/3 | K24H S26C L100Y |
| 50 | 4.61 | 2/3 | E32Y A40N P101T |
| 51 | 5.68 | 1/3 | K24P Y31A S58E |
| 52 | no signal | 0/3 | L30R V39K Q96W |
| 53 | no signal | 0/3 | R34P A57W S103P |
| 54 | 4.57 | 1/3 | S25N V29N Q95D |
| 55 | 3.40 | 1/3 | S26P L30K Q95S |
| 56 | 3.02 | 1/3 | Q96T P101H L102N |
| 57 | no signal | 0/3 | Q27L R60D |
| 58 | no signal | 0/3 | S33P Q95D Q96M |
| 59 | 4.69 | 1/3 | S26N A40Q A57Y |
| 60 | 3.67 | 1/3 | K24H N37R S38R |
| 61 | no signal | 0/3 | N35C W56V S62Y |
| 62 | no signal | 0/3 | S58P Q95L P101W |
| 63 | 1.29 | 3/3 | S26P V29A Y97V |
| 64 | no signal | 0/3 | L30S W56I S103K |
| 65 | no signal | 0/3 | H98I L100C L102T |
| 66 | no signal | 0/3 | V29D S38W Q96P |
| 67 | 5.05 | 2/3 | W56C A57Y L102H |
| 68 | no signal | 0/3 | A40K R99C |
| 69 | 2.18 | 3/3 | K36F T59R R99Y |
| 70 | 4.33 | 1/3 | S26M Y97K H98Q |
| 71 | 3.78 | 3/3 | Q27F K36L T59W |
| 72 | 2.59 | 2/3 | N35P V39L S62M |
| 73 | no signal | 0/3 | S26N S38K R60F |
| 74 | 0.40 | 3/3 | Q27R W56S S58Y |

12 of these entries, quoted again:

{"changes": "Y31M S33G Y97W", "mean log10 Kd (nM)": "3.29", "detected": "1/3"}
{"changes": "L30W K36S S58M", "mean log10 Kd (nM)": "4.74", "detected": "2/3"}
{"changes": "S38D Y97M R99I", "mean log10 Kd (nM)": "3.21", "detected": "1/3"}
{"changes": "Q96T P101H L102N", "mean log10 Kd (nM)": "3.02", "detected": "1/3"}
{"changes": "A40R R60H S103R", "mean log10 Kd (nM)": "no signal", "detected": "0/3"}
{"changes": "Q27G Q96D", "mean log10 Kd (nM)": "1.13", "detected": "3/3"}
{"changes": "Q27L R60D", "mean log10 Kd (nM)": "no signal", "detected": "0/3"}
{"changes": "L30C E61W Q96G", "mean log10 Kd (nM)": "1.65", "detected": "3/3"}
{"changes": "S28R S33P V39L", "mean log10 Kd (nM)": "2.21", "detected": "3/3"}
{"changes": "V39T H98I L102P", "mean log10 Kd (nM)": "5.17", "detected": "1/3"}
{"changes": "L30N S33L L100C", "mean log10 Kd (nM)": "1.90", "detected": "3/3"}
{"changes": "Q27L E32H N37C", "mean log10 Kd (nM)": "2.78", "detected": "3/3"}

Three control strains display no target. For library AAYL50, 18% of the pairings with them gave a signal, with a median of 4.19 and one signal in twenty below 2.99, so weak values seen in few replicates may be background.